Screening results from PubChem BioAssay.
Hits are enriched below; roughly 1% of the tested compounds scored in any of these assays.
CDK5 p35 inh: inhibitors of human CDK5/p35 kinase, primary screen, biochemical, single concentration | Cyclin-dependent kinase 5 (Homo sapiens) + Cyclin-dependent kinase 5 activator 1 (Homo … | Recombinant CDK5/p35, ADP-Glo luminescence, 60 min | inhibition, % at 10 µM | 330,000 compounds, 0.01% hits | AID 488839, 2010;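 active means highest replicate inhibition of at least 50% and at least 75% of replicates reaching 50%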;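 further: plate controls were DMSO neutral control for no effect and GW8510 at 10 µM for full effect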
Statin myotox sup: suppressors of statin myotoxicity in C2C12 myotubes, primary screen, cell-based, single point, plate reader; C2C12 myotubes + simvastatin, ATP luminescence, 48 h; scaled: DMSO 0, geranylgeraniol control 100; rescue of ATP level, % at 7.49 µM; 330,000 compounds, 0.78% hits; AID 602340, 2012;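 active means mean ATP rescue above about 67%, or every replicate alone reaching that limit, limit read from the data, passing the limit was not always enough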;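 further: myotubes were challenged with 10 µM simvastatin during compound exposure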
Rtt109 HAT inh: inhibitors of C. albicans Rtt109/Vps75 HAT, primary screen, biochemical, ThioGlo CoA-SH fluorescence, plate reader | purified Rtt109/Vps75, 4 h | inhibition, % at 34.9 µM | 330,000 compounds, 0.16% hits | AID 540336, 2011;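 active means inhibition of at least 50% in every replicate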
Cneo AK release: Cryptococcus neoformans cell lysis inducers, primary screen, AK release luminescence, single concentration | 360,000 compounds, 0.2% hits | C. neoformans lysis, adenylate kinase release luminescence, 4 h; normalised: neutral wells 0, clomiphene wells 100 | lysis activity, % at 15 µM;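 active means mean lysis activity across replicates of at least 80%, whatever share of replicates individually reach that level; inactive means mean lysis activity below 80%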
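Material – log-phase Cryptococcus neoformans yeast cells · Input – 5 × 10^6 yeast cells/mL · Medium – fresh YPD growth medium · Doses – single compound concentration per well · Timing – static 4 h at 37 °C with compound, 1 h detection · Detection – adenylate kinase release luminescence · Read-out – signal increase indicating cell lysis · Control set – Clomiphene as positive lysis control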
Yeast UUG start: yeast start codon fidelity modulation | S. cerevisiae UUG-firefly luciferase reporter, luminescence/redox ratio | activity score, % at 18.7 µM | 350,000 tested, 0.13% active;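 active = replicate mean at a twofold rise or more, about +100% in these data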;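 also: firefly luciferase made from a UUG start codon reports start codon fidelity; reporter light over untreated wells divided by growth signal over untreated wells; some hits fall short of that in this replicate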
Active calls of the source: *; / = not tested or not shown.

Results follow in this order: CDK5 p35 inh | Statin myotox sup | Rtt109 HAT inh | Cneo AK release | Yeast UUG start
> COc1cccc(/C=C2/Sc3ccc(C(=O)NCCN4CCCC4)cc3NC2=O)c1
    11 | 7 | 55* | -1 | -14
> O=C1Nc2cc(C(=O)NCCN3CCCCCC3)ccc2S/C1=C/c1ccccc1F
    / | -10 | / | 1 | -16
> COc1cccc(/C=C2/Sc3ccc(C(=O)NCCCN4CCCC4)cc3NC2=O)c1
    20 | -9 | 60* | 2 | -13
> CO[C@H]1CN(C)C(=O)c2ccc(NC(=O)NC(C)C)cc2OC[C@H](C)N(CC2CC2)C[C@H]1C
    / | 2 | / | 0 | -5
> C/C(=N/Nc1nc(-c2ccc(Cl)cc2)cs1)c1cccs1
    0 | 144* | 10 | 0 | 0
> CC(=O)Nc1ccc(-c2csc(N/N=C(/C)c3ccccc3)n2)cc1
    0 | / | 3 | / | /
> CN(C)S(=O)(=O)c1ccc(C(=O)NCCOc2ccc(F)cc2)cc1
    2 | 146* | -4 | -2 | -20
> CN(C)S(=O)(=O)c1ccc(C(=O)NCCOc2ccccc2)cc1
    0 | / | -2 | -2 | -13
> Cc1ccc(O)c(C(=O)c2cc(C#N)c(=O)n(CC3CCCO3)c2)c1 (configuration not stated)
    -2 | 95* | -7 | / | /
> COc1ccc(O)c(C(=O)c2cc(C#N)c(=O)n(CC3CCCO3)c2)c1 (configuration not stated)
    1 | / | 2 | -1 | -19
> CN1C(=O)c2cccc3c(N(C)C)ccc(c23)C1=O
    0 | 2 | -2 | -3 | -7
> CN1C(=O)c2ccc(N(C)C)cc2C1=O
    -1 | 109* | -9 | 0 | -2
> Cc1ccc(S(=O)(=O)Nc2ccc3c(c2)C(=O)N([C@@H](C)CO)C[C@@H](C)[C@H](CN(C)C(=O)CCCN(C)C)OCCCC[C@H](C)O3)cc1
    / | / | / | -4 | 17
> COc1ccc(CN(C)C[C@H]2Oc3c(NC(=O)C4CC4)cccc3C(=O)N([C@@H](C)CO)C[C@@H]2C)cc1
    / | 9 | / | 9 | /
> CO[C@H]1CC[C@@H]2CCOc3c(C#N)cccc3C(=O)N(C)C[C@@H](OC)[C@@H](C)C(=O)N(C)C[C@@H]1O2
    / | 24 | / | 85* | /
> CO[C@H]1CC[C@@H]2CCOc3c(C#N)cccc3C(=O)N(C)C[C@@H](OC)[C@@H](C)C(=O)N(C)C[C@H]1O2
    / | 7 | / | 2 | /
> CNC[C@H]1Oc2cc(C#CC3(O)CCCC3)ccc2S(=O)(=O)N([C@@H](C)CO)C[C@@H]1C
    / | 5 | / | 13 | /
> CCCOn1nnnc1-c1ccccc1
    0 | 120* | -12 | / | /
> C[C@H]1CN([C@@H](C)CO)C(=O)c2ccccc2-c2ccccc2CO[C@H]1CN(C)C(=O)[C@@H]1CCCN1C
    / | / | / | 42 | /
> CCOC(=O)c1c(CSC(=N)N)n(C)c2cc(Br)c(OC(C)=O)cc12
    0 | / | 85* | / | /
> COc1ccc(CNC(=O)C[C@@H]2C=C[C@H](NC(=O)c3ccc4c(c3)OCO4)[C@@H](CO)O2)cc1
    / | 17 | / | -10 | -11
> Cc1cccc(NC(=O)COc2ccc3oc4c(c3c2)CCCC4)n1
    0 | 134* | 4 | 2 | -10
> C[C@@H]1CN([C@H](C)CO)C(=O)c2cc(NC(=O)Cc3ccccc3)ccc2O[C@@H](C)CCCCO[C@@H]1CN(C)CC1CCCCC1
    / | / | / | 3 | 21
> C[C@H]1CN([C@@H](C)CO)C(=O)c2cc(C3=CCCCC3)cnc2O[C@@H]1CN(C)C(=O)C1CCOCC1
    / | 25 | / | -3 | -4
> Cc1cccnc1-n1c(CCN2C(=O)c3ccccc3C2=O)nc2ccccc2c1=O
    0 | 72* | -1 | 1 | -12
> CC(C)CC#Cc1cnc2c(c1)C(=O)N([C@@H](C)CO)C[C@@H](C)[C@@H](CN(C)C(=O)CCN1CCCCC1)O2
    / | -11 | / | 8 | -6
> CCOC(=O)C1CCCN(c2cc(=O)n(C3CCCCC3)c(=O)[nH]2)C1 (configuration not stated)
    1 | / | 59* | / | /
> C[C@@H]1CCCCO[C@H](CN(C)S(C)(=O)=O)[C@@H](C)CN([C@H](C)CO)C(=O)c2cc(NC(=O)CCCN(C)C)ccc2O1
    / | 11 | / | / | /
> Cc1cc(C)n(CC(=O)N2c3ccccc3Sc3ccccc32)n1
    1 | 119* | 7 | -1 | -15
> Cc1cc(C)n(CC(=O)O)n1
    0 | / | -5 | 0 | -24

Random excerpt: five records from the list
Results follow in this order: CDK5 p35 inh | Statin myotox sup | Rtt109 HAT inh | Cneo AK release | Yeast UUG start
> CC(C)CC#Cc1cnc2c(c1)C(=O)N([C@@H](C)CO)C[C@@H](C)[C@@H](CN(C)C(=O)CCN1CCCCC1)O2
    / | -11 | / | 8 | -6
> C[C@H]1CN([C@@H](C)CO)C(=O)c2ccccc2-c2ccccc2CO[C@H]1CN(C)C(=O)[C@@H]1CCCN1C
    / | / | / | 42 | /
> C[C@@H]1CN([C@H](C)CO)C(=O)c2cc(NC(=O)Cc3ccccc3)ccc2O[C@@H](C)CCCCO[C@@H]1CN(C)CC1CCCCC1
    / | / | / | 3 | 21
> CCOC(=O)C1CCCN(c2cc(=O)n(C3CCCCC3)c(=O)[nH]2)C1 (configuration not stated)
    1 | / | 59* | / | /
> COc1ccc(CNC(=O)C[C@@H]2C=C[C@H](NC(=O)c3ccc4c(c3)OCO4)[C@@H](CO)O2)cc1
    / | 17 | / | -10 | -11

Additional entries
Results follow in this order: CDK5 p35 inh | Statin myotox sup | Rtt109 HAT inh | Cneo AK release | Yeast UUG start
> CC(C)(C)SCCNC(=O)CN(c1ccc(F)cc1)S(=O)(=O)c1ccccc1
    0 | 8 | 2 | 210* | 13
> CCN(CC)S(=O)(=O)c1cccc(-c2nnc(SCC(=O)NCCC3=CCCCC3)n2N)c1
    -2 | 124* | 5 | 1 | 2
> CCC(=O)Nc1cc(C)c(OC)c(C)c1
    1 | / | 52* | / | /
> CCC(=O)Nc1cc(OC)cc(OC)c1
    -2 | 2 | -5 | 3 | 5
> O=C(Nc1cccc(S(=O)(=O)C(F)F)c1)c1ccc(S(=O)(=O)N2CCOCC2)cc1
    2 | 95* | 28 | -1 | 3
> O=C(Nc1cccc(S(=O)(=O)C(F)F)c1)c1ccc(S(=O)(=O)N2CCCC2)cc1
    -3 | -4 | 9 | -5 | -12
> CCOC(=O)C1CCN(S(=O)(=O)c2cc(Br)cc3c2N(C(C)=O)C(C)C3)CC1 (configuration not stated)
    0 | 88* | -3 | 0 | -6
> O=S(=O)(NCc1csc(-c2cccs2)n1)c1cccc(C(F)(F)F)c1
    -1 | 131* | 9 | 1 | 1
> O=C(CN1CCOCC1)N[C@H]1CC[C@H](CCNC(=O)C2CCC2)O[C@H]1CO
    / | -22 | / | 7 | /
> CC(=O)N1CCN(S(=O)(=O)c2cccc(C(=O)NCc3ccc(F)cc3)c2)CC1
    1 | 77* | 2 | 0 | -7
> O=C(NCc1ccc(F)cc1)c1cccc(S(=O)(=O)N2CCCC2)c1
    -2 | 13 | 6 | 2 | -19
> S=C1Cc2ccccc2N1
    1 | 74* | 2 | -2 | -24
> CCOc1ccc2nc3cc(N=Nc4ccc(N)nc4N)ccc3c(N)c2c1
    62* | / | -7 | / | /
> CCCCS(=O)(=O)c1sc2nc(C)cc(C)c2c1N
    3 | -12 | 55* | 8 | -2
> C[C@@H]1CCCCO[C@@H](CN(C)C(=O)Nc2ccc3c(c2)OCO3)[C@H](C)CN([C@@H](C)CO)C(=O)c2cc(NC(=O)c3ccncc3)ccc2O1
    / | / | / | 2 | 0
> Nn1c(SCC(=O)Nc2ccccc2F)nnc1-c1cccnc1
    -1 | 42 | -2 | 1 | -6
> Nn1c(SCC(=O)Nc2ccc(F)cc2F)nnc1-c1cccnc1
    1 | 112* | -4 | -4 | -8
> COc1ccc(S(=O)(=O)N(C)C[C@H]2Oc3ccc(NC(=O)CCN4CCOCC4)cc3CC(=O)N([C@@H](C)CO)C[C@@H]2C)cc1
    / | 22 | / | 3 | -2
